Assay results: ChEMBL document CHEMBL1148794, “Structure-activity relationship of a series of inhibitors of monoacylglycerol hydrolysis--comparison with effects upon fatty acid amide hydrolase” (J Med Chem, 2007)

Chains of the proteins cited; added tags and fusions are not shown.
UniProt Q8R431, whole entry: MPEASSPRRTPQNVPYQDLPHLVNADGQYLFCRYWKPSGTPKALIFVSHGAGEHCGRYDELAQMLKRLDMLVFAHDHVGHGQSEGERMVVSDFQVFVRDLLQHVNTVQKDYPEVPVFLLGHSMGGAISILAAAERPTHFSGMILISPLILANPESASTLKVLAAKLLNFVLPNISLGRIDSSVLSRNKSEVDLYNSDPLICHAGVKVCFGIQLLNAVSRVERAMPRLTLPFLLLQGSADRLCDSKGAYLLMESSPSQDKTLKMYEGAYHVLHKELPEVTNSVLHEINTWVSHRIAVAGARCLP

Assays:
[1] = target: Monoglyceride lipase (Rattus norvegicus) (UniProt Q8R431); test: Inhibition of MGL in rat cerebellum membrane fractions assessed as [3H]2-oleoylglycerol hydrolysis at 100 uM; type: cell membranes
[2] = target: Monoglyceride lipase (Rattus norvegicus) (UniProt Q8R431); test: Inhibition of MGL in rat cerebellum cytosolic fractions assessed as [3H]2-oleoylglycerol hydrolysis at 100 uM; type: tissue-based
[3] = target: Monoglyceride lipase (Rattus norvegicus) (UniProt Q8R431); test: (§1) Inhibition of MGL in rat cerebellum cytosolic fractions assessed as [3H]2-oleoylglycerol hydrolysis; type: tissue-based
Monoglyceride lipase = Monoglyceride lipase (Rattus norvegicus, UniProt Q8R431); test: as §1; type: tissue-based

SMILES	inhibition [1] [%]	inhibition [2] [%]	pI50 (-log I50, M) [3]	IC50 (Monoglyceride lipase) [µM]
CCCCC/C=C\C/C=C\C/C=C\C/C=C\CCCC(=O)OC[C@H]1CO1	43	68	–	–
CCCCC/C=C\C/C=C\C/C=C\C/C=C\CCCC(=O)OCC1CO1 (racemic)	–	–	5.35	4.5
CCCCC/C=C\C/C=C\C/C=C\C/C=C\CCCC(=O)OC[C@@H]1CO1	47	69	–	–
